Yeast mating assay B: variants of the scFv Ab-14

Antigen: PDVDLGDISGINAS, a 14-residue peptide of the SARS-CoV-2 spike HR2 region.

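The parent was found by panning a naive human phage display library on the peptide. The variants were designed computationally from a first round of random CDR variants and then made and measured. Group labels follow the data file (Ctrl: baseline library sampled from a position-specific scoring matrix, with some repeated check sequences; Rand: our label for a block that the file lists under HC and that is probably the random mutants of the ten best first-round binders; GP: Gaussian process model; GPLM: also part of the Gaussian process libraries; HC: hill climbing; Gen: genetic algorithm; Gibbs: Gibbs sampling; a sequence that several methods proposed may carry one label only). In AlphaSeq, yeast of one mating type display the scFv and yeast of the other type display the target. Mating (16 h, 30 °C) was followed by selection of diploids and sequencing of their barcodes. A regression on co-assayed BCL2-family reference pairs converts the normalised counts of each replicate to an apparent Kd. Mating was done six times.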

The variants keep the light chain, the linker and the frameworks of Ab-14 (scFv order VH, three GGGGS repeats, VL).
VH: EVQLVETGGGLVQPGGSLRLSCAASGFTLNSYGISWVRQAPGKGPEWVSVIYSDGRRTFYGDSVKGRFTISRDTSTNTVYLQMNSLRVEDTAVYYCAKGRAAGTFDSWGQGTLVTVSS
VL: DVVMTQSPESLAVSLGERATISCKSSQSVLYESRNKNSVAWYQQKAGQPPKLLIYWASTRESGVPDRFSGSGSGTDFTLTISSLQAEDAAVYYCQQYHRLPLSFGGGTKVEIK

Substitutions are numbered in sequence along the VH above, starting at 1 (not Kabat).
Variants here have at most six changes.
Affinities are written as log10 Kd with Kd in nM; a lower number is a better binder.
The mean shown is taken over the replicates in which the pair was detected.
"nd" means that the variant was in the library but no mating with the target was seen in any replicate; the authors take this as a sign of poor binding, and no number exists.
A sequence measured in both rounds can read differently, since the two assays cover different ranges.

changes	group	log10 Kd (nM), mean	replicates with signal
T28S/G61A/S63H/R100Q	GPLM_Gen	0.74	6 of 6
S31N/A101L/D106E	Ctrl	1.45	2 of 6
T28Y/S31D/F59Q/G61I	GP_HC	2.63	3 of 6
T28G/S31E/R100Q/S107K	GPLM_Gen	0.53	6 of 6
T28S/S31N/G61A/R100Q	GPLM_Gen	0.07	6 of 6
R56L/G61I/R100K	GP_Gibbs	1.61	3 of 6
G61S/A101E/S107M	GP_HC	0.01	1 of 6
I34Y/S63G/G99I/D106I/S107K	Ctrl	nd	0 of 6
S31E/S63Q/A101T	GP_Gen	2.13	3 of 6
S31L/F59Q/G61I/S63E/S107I	Rand	nd	0 of 6
F27T/S53A/F105N/D106K	Rand	nd	0 of 6
G61A/G103L	Ctrl	nd	0 of 6
T28S/G61V/S63D/R100E	GPLM_Gen	1.12	6 of 6
S31D/R56M/A101T/D106W	GP_HC	nd	0 of 6
T28D/S63A/R100K/A101Q	GP_Gen	0.21	6 of 6
T28D/G61V/R100Q/A101E	GP_Gen	-0.15	6 of 6
S31E/F59M/G61T/A101S	GP_HC	1.44	6 of 6
T28S/R100K	GPLM_Gen	0.59	6 of 6
S63P/R100K/A101T	GP_Gibbs	0.87	6 of 6
G26H/N30E/S53A/D106K	GP_HC	nd	0 of 6
G61A/S107W	Ctrl	1.44	4 of 6
S31M/A102G/S107P	Ctrl	nd	0 of 6
T28D/G61A/R100K/S107K	GP_Gen	0.76	5 of 6
T28H/G61A/R100K/A101T	GPLM_Gibbs	0.71	6 of 6
N30D/D106V/S107V	GPLM_HC	nd	0 of 6
T28Y/S31E/R100Q/A101T	GP_Gen	nd	0 of 6
G26K/T28D/S31M/A101T	GP_Gibbs	0.87	6 of 6
T28V/S31E/G61H/A101T	GP_Gen	0.44	6 of 6
G61S/R100S/A101V/A102V	GP_HC	nd	0 of 6
L29N/S31E	Ctrl	nd	0 of 6
T28D/A101S	Ctrl+GPLM_Gen	0.87	10 of 12
S31V/F59Q/G61I/R100I	Rand	nd	0 of 6
S31D/G61Q/G99C/A102K	Ctrl	nd	0 of 6
T28D/F59V/S63A/A101E	GP_Gibbs	0.10	5 of 6
F27E/S35L/G61S/A102G	Rand	nd	0 of 6
T28Q/S31E/A101E	GPLM_HC	-0.20	6 of 6
T28D/T58I/Y60G/A101P/T104W/D106N	Rand	2.11	1 of 6
N30D/T104G/F105A/D106L	Rand	nd	0 of 6
T28H/R100Q/A101T/S107D	GP_Gen	2.38	4 of 6
S31E/R56H/G61S	GP_HC	2.40	5 of 6
F27E/T28N/G61D	Ctrl	2.08	2 of 6
T28E/S63D/R100E	GP_Gen	0.57	6 of 6
F27Y/S31E/G61S	GP_HC	1.75	6 of 6
T28P/S31D/G61I/A101L	GP_HC	1.44	6 of 6
S31D/D54W/F59Q/G61I/G99T/R100P	Rand	2.59	1 of 6
T28N/R100H/A101Q	GP_Gen	2.07	4 of 6
T28D/S63A/A101E	GP_Gen	-1.14	1 of 6
F27E/A101Q	Ctrl	1.41	5 of 6
T28S/F59A/S63K	GP_Gen	1.81	6 of 6
T28N/G61Q/R100Q/A101T	GP_Gen	nd	0 of 6
T28Q/S31D/G61V/A101T	GP_Gen	0.73	5 of 6
G26K/T28D/G61S/A101T	GPLM_Gibbs	0.37	6 of 6
G26K/G61S/R100E/A102G	GP_HC	1.69	5 of 6

Picked from the list: the 6 lowest averages where every replicate gave a value.

changes	group	log10 Kd (nM), mean	replicates with signal
T28Q/S31E/A101E	GPLM_HC	-0.20	6 of 6
T28D/G61V/R100Q/A101E	GP_Gen	-0.15	6 of 6
T28S/S31N/G61A/R100Q	GPLM_Gen	0.07	6 of 6
T28D/S63A/R100K/A101Q	GP_Gen	0.21	6 of 6
G26K/T28D/G61S/A101T	GPLM_Gibbs	0.37	6 of 6
T28V/S31E/G61H/A101T	GP_Gen	0.44	6 of 6

Some sequences occur more than once in the pool; their replicates are pooled.
The authors averaged sequences with at least three values out of six and counted those with two or fewer as poor binders.
As a blank, each scFv also met three strains without target: over all heavy chain designs, 1% of these pairings were detected, typically at 2.08 and seldom below 0.84.

Source: Li et al. 2023 (doi:10.1038/s41467-023-39022-2), MIT Lincoln Laboratory and A-Alpha Bio; data file from the FLAb repository.